# Test system: [^14C]phenytoin efflux across the rat BBB
# Experiment: BEI inhibition study: pre-administration of compounds into rat Par2 region
# Type: in vivo
# Settings: 30 min
substance,measurement,setting,value
dehydroepiandrosterone sulfate [DHEAS],effect of pre-administration on [14C]phenytoin BEI (in words),"20 mM desipramine, probenecid, MK-571, 5 mM quinidine, 4 mM verapamil, 500 μM prazosin, 10 mM methotrexate, DHEAS, PSC833",not significantly altered
same,% of Control,compound 10 mM pre-administered,121 ± 18%
same,BEI (%),"compound 10 mM pre-administered, control 64.1 ± 12.9",77.9 ± 11.3%

# Source: article PMC8906351 (Pharmaceutical research, 2021)
